Source: patent US6670493B2, “Methods and compositions for treating diseases due to androgen deficiency with glucocorticoid receptor antagonist compounds and new compounds” (Jenapharm GmbH & Co. KG, priority 2001, dated 2003)

How the values were obtained:
primary rat Leydig cells [1] = assay: hCG-stimulated testosterone production in primary rat Leydig cells treated with dexamethasone with or without glucocorticoid receptor antagonist (Elisa); assay type: cell-based
Description: (§1) Testicular cells were prepared from the testicles of sexually mature, 12-week old, male Wistar rats by means of a collagenase treatment. Leydig cells were obtained from this preparation by a continuous Percoll gradient centrifugation.
(§2) Freshly prepared Leydig cells were sown in microtiter plates in 100 μL of DMEM/F12 with phenol red (20,000) cells/well) with addition of 0.1% BSA, penicillin (100 U/ml) and streptomycin (100 μg/ml). After one hour, the medium was changed with addition of substance. For 18 hours, the Leydig cells were incubated with dexamethasone alone or together with glucocorticoid receptor antagonists (250 μL of DMEM/well with addition of penicillin (100 U/ml) and streptomycin (100 μg/ml)). […] Ethanol was used as solvent for dexamethasone and the glucocorticoid receptor antagonists; the final concentration of the ethanol was not more than 0.2%.
Aliquots of the supernatant were frozen at −70° C. Testosterone was measured with a commercial Elisa (IBL, Hamburg). The standard curve of testosterone Elisa was then adapted to the cell culture conditions.

primary rat Leydig cells [2] = assay: Cell damage: activity of mitochondrial succinate dehydrogenase (WST-1 test) in primary rat Leydig cell cultures; assay type: cell-based
Description: as §1, §2
Parallel to the testosterone measurement, cell damage was determined after the 26 hours by measuring the activity of the mitochondrial succinate dehydrogenase (WST-1 test, Böhringer, Mannheim).

hCG: human chorionic gonadotropin (hCG, Sigma), used to stimulate the testosterone production of the cells
Testosterone Production, Average value ± SD (primary rat Leydig cells [1]; hCG alone 0.5 ng/ml): 4.26 ± 1.11 ng/mL
Testosterone Production, Average value ± SD (%) (primary rat Leydig cells [1]; hCG alone 0.5 ng/ml, basal = 0): 100.00 ± 27.25%
Effect of stimulation on testosterone production (in words) (primary rat Leydig cells [1]; hCG stimulation of cultured Leydig cells): multiple increase in the testosterone production
Succinate Dehydrogenase Activity, Average value ± SD (primary rat Leydig cells [2]; hCG alone 0.5 ng/ml): 0.281 ± 0.041 Absorptions Units
Effect of stimulation on mitochondrial succinate dehydrogenase activity (in words) (primary rat Leydig cells [2]; hCG in the given dose): not changed
